Values of other authors as cited in patent publication US5420106A, “Method and composition having enhanced alpha-hydroxy acid skin permeation and retention” (priority 1994, dated 1995).

Details: hydrated skin; cited from earlier work

For `CO` [methanol], the “permeation or permeation rate on hydration of skin” value is listed as “permeation is unaltered by hydration”.
